Measurements published in patent US12161748B2, “Topical formulations comprising tofacitinib” (TWi Biotechnology, Inc., priority 2018, dated 2024).
Where a name gives a salt, the structure may show the parent alone.

Assay: Compatibility study of dissolved tofacitinib citrate with excipients, 60° C. seven days, HPLC
Format: physicochemical
Conditions: tofacitinib citrate in DMSO, 60° C. for seven days

total degradation products: 4.17%
SMILES: C[C@@H]1CCN(C(=O)CC#N)C[C@@H]1N(C)c1ncnc2[nH]ccc12 [Tofacitinib Citrate, 3-((3R,4R)-4-methyl-3-[methyl-(7H-pyrrolo[2,3-d]pyrimidin-4-yl)-amino]-piperidin-1-yl)-3-oxopropionitrile]
